# Results published in patent US10028992B2, “Methods of treating muscular dystrophy” (BOARD OF REGENTS OF THE NEVADA SYSTEM OF HIGHER EDUCATION …, priority 2012, dated 2018).
# Some compounds may have been tested in ways that are not shown here.
# System: α7 integrin promoter
# Assay: muscle cell-based assay: α7βgal+/− myoblasts/myotubes, LacZ reporter, β-galactosidase cleavage of FDG
# Set-up: species or system mouse
smiles,measurement,setting,value
O=C(NCC1(N2CCOCC2)CCCCC1)c1cc(Br)ccc1Cl,Score,Table 12 compound data,42
same,Fit Curve Class,"curve class number, key not given",2.2
same,Fit HillSlope,curve fit,0.8
same,Fit LogAC50,given as log AC50 (negative values),−5.05
